{"sequences": {"note": "By UniProt entry, the sequences of proteins in these tests, tags left out. Where a name states a change or a piece, a line headed by the entry shows the natural chain unless it says otherwise.", "UniProt Q00961": "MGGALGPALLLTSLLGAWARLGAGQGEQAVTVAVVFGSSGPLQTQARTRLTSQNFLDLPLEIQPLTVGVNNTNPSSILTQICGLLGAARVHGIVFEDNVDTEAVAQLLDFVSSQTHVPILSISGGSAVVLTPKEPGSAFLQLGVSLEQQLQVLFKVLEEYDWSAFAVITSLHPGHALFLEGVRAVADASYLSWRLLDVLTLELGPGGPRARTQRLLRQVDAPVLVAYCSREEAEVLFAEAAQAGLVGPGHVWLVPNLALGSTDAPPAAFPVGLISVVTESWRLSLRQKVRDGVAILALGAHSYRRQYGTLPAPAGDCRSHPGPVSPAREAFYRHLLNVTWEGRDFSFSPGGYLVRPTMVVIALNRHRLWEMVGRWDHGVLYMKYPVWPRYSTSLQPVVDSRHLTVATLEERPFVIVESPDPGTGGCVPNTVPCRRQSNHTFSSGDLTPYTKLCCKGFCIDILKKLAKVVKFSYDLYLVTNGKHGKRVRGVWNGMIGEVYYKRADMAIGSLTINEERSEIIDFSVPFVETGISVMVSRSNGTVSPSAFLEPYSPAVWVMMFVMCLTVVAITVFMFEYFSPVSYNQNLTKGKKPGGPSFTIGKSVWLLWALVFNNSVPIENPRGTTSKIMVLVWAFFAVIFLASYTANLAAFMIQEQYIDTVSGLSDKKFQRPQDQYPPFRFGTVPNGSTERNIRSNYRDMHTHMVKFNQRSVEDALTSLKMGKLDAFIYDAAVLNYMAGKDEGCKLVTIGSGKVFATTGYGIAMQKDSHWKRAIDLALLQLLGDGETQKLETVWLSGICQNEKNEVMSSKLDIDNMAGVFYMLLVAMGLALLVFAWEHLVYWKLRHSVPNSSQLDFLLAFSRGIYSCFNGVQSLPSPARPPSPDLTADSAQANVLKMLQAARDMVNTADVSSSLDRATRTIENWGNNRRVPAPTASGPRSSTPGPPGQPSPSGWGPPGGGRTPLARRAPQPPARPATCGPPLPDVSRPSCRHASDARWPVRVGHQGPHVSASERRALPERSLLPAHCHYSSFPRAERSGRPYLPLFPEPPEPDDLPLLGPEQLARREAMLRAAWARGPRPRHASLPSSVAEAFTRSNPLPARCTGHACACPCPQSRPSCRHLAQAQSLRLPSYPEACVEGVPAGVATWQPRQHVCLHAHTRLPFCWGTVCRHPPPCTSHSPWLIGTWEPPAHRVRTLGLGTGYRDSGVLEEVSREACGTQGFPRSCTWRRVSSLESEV", "UniProt P42866, whole entry, looked up": "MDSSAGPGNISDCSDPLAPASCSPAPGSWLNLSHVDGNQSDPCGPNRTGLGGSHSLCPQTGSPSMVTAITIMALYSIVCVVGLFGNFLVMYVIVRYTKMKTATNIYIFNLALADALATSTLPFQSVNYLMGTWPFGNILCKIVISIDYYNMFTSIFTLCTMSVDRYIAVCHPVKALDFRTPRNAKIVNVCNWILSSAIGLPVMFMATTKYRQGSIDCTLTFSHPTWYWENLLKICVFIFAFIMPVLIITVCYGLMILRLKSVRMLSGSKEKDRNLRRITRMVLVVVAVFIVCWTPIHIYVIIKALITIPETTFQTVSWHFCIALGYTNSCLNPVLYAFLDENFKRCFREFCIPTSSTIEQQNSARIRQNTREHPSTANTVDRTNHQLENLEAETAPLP", "UniProt P32300, whole entry, looked up": "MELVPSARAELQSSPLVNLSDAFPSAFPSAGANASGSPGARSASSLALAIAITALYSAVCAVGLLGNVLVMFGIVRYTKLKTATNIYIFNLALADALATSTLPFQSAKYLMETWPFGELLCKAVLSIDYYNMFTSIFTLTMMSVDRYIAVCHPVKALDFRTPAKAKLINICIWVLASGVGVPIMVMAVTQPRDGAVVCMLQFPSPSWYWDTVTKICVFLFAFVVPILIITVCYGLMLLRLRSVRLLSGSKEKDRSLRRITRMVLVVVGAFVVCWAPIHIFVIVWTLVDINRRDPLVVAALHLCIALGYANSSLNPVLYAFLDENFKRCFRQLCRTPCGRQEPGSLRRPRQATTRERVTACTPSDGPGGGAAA", "UniProt P33534": "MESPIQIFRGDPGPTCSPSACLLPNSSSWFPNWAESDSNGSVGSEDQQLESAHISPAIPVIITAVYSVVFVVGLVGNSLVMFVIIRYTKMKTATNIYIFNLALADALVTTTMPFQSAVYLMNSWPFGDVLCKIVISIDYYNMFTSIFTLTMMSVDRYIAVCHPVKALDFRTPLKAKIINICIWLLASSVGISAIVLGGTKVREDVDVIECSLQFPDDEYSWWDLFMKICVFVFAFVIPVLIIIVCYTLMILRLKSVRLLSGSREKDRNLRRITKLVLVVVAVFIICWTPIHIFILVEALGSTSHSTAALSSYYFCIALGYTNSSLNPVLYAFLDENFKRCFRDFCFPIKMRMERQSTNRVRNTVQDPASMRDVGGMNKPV", "UniProt Q920H4": "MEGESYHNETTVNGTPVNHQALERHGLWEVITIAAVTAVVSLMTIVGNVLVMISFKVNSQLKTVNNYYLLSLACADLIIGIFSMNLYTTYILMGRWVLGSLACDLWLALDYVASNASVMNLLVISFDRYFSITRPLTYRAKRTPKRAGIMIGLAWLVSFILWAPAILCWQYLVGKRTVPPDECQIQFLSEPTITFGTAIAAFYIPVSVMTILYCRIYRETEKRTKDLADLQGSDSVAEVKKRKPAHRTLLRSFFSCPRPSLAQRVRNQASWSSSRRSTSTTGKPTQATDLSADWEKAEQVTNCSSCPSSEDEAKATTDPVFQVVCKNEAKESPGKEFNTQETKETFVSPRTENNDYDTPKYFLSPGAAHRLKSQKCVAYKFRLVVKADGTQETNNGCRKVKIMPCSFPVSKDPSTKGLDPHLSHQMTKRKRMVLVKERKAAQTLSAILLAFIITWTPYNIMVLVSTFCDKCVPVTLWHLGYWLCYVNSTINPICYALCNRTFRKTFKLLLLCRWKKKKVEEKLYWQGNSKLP", "UniProt Q9ERZ4": "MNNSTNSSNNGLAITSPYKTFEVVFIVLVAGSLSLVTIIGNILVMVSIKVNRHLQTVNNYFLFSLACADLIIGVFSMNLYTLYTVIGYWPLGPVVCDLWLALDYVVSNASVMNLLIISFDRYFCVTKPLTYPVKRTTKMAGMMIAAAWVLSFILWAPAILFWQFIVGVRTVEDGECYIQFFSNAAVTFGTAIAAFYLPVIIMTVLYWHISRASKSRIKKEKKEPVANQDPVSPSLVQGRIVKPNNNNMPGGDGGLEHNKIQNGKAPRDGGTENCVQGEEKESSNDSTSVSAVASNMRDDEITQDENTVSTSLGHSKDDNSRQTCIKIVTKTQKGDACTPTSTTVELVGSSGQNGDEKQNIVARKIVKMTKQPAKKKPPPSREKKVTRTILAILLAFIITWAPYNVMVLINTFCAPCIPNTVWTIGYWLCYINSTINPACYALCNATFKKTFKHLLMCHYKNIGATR", "UniProt P12657": "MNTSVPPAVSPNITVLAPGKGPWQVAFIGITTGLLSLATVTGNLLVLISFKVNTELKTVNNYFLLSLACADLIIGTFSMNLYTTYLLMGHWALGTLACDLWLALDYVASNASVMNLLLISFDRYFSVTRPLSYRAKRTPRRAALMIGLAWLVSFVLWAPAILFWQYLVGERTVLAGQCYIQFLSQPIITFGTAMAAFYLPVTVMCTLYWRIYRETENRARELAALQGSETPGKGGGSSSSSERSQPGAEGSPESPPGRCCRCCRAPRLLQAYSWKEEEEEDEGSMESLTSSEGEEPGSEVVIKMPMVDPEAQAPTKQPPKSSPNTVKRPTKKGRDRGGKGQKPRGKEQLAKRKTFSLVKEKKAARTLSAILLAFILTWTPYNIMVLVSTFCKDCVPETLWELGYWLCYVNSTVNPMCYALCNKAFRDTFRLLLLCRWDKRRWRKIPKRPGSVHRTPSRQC", "UniProt P32211": "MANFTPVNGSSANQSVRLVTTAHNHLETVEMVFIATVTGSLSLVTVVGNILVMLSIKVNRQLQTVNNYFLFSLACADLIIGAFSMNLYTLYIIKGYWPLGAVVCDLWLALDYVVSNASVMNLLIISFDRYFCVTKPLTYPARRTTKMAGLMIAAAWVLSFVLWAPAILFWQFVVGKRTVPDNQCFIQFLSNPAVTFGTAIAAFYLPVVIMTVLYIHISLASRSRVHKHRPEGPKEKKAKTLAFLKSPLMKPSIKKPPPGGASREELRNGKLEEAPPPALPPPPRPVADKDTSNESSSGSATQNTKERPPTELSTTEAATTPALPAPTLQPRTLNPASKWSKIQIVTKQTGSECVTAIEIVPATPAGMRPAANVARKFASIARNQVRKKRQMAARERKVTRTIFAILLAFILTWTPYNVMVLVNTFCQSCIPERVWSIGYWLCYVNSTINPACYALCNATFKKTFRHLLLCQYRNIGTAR", "UniProt Q9ERZ3": "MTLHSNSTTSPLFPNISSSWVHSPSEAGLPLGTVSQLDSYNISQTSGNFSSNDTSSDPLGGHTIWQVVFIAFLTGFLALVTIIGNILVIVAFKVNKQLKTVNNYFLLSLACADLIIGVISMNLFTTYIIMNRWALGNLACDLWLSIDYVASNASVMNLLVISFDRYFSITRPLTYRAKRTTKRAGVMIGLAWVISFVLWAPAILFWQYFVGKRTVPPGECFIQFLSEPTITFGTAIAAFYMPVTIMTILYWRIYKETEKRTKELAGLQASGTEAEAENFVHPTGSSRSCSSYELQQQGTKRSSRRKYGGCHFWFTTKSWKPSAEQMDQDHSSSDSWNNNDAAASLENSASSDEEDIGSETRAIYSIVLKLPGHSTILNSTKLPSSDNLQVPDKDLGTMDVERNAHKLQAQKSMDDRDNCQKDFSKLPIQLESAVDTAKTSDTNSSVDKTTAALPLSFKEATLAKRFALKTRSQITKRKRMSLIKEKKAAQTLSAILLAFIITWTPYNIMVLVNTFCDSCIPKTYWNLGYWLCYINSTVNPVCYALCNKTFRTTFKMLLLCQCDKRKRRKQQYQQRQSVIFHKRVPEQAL"}, "source": "ChEMBL document CHEMBL1122042", "about": "“Chemical synthesis and molecular pharmacology of hydroxylated 1-(1-phenylcyclohexyl-piperidine derivatives” (1982)", "key": {"[1]": {"biological_target": "Glutamate receptor ionotropic, NMDA 2C (Rattus norvegicus) (UniProt Q00961)", "test": "Inhibition of the specific binding of [3H]phencyclidine to phencyclidine receptor", "conditions": "Mus musculus"}, "[2]": {"biological_target": "T1, Opioid receptor (Mus musculus) (UniProt P42866+P32300+P33534)", "test": "Inhibition of the specific binding of [3H]morphine to Opioid receptors"}, "[3]": {"biological_target": "T1, Opioid receptor (Mus musculus)", "test": "Hill coefficient for binding of [3H]morphine to Opioid receptors"}, "[4]": {"biological_target": "T2, Muscarinic acetylcholine receptor (Mus musculus) (UniProt Q920H4+Q9ERZ4+P12657+P32211+Q9ERZ3)", "test": "Inhibition of the specific binding of [3H]QNB to Muscarinic acetylcholine receptor"}, "[5]": {"biological_target": "Glutamate receptor ionotropic, NMDA 2C (Rattus norvegicus) (UniProt Q00961)", "test": "Hill coefficient for binding of [3H]phencyclidine to phencyclidine receptor", "conditions": "Mus musculus"}, "[6]": {"biological_target": "T2, Muscarinic acetylcholine receptor (Mus musculus)", "test": "Hill coefficient for binding of [3H]QNB to Muscarinic acetylcholine receptor"}}, "note": "Several values for one entry are separate records, joined by “and”; a condition that tells them apart may be missing. Identical values can stand only once."}
{"smiles": "Oc1ccc(C2(N3CCCCC3)CCCCC2)cc1", "values": [{"measurement": "K0.5", "setting": "[1]", "result": 20, "unit": "µM"}, {"measurement": "K0.5", "setting": "[2]", "result": 35.4, "unit": "µM"}, {"measurement": "nH", "setting": "[3]", "result": 0.9}, {"measurement": "K0.5", "setting": "[4]", "result": "> 100", "unit": "µM"}, {"measurement": "nH", "setting": "[5]", "result": 1}]}
{"smiles": "Oc1cccc(C2(N3CCCCC3)CCCCC2)c1", "values": [{"measurement": "K0.5", "setting": "[1]", "result": 0.03, "unit": "µM"}, {"measurement": "K0.5", "setting": "[2]", "result": 0.06, "unit": "µM"}, {"measurement": "nH", "setting": "[3]", "result": 0.9}, {"measurement": "K0.5", "setting": "[4]", "result": 70, "unit": "µM"}, {"measurement": "nH", "setting": "[6]", "result": 1}, {"measurement": "nH", "setting": "[5]", "result": 0.9}]}
{"smiles": "O[C@H]1CC[C@@](c2ccccc2)(N2CCCCC2)CC1", "values": [{"measurement": "K0.5", "setting": "[1]", "result": 17, "unit": "µM"}, {"measurement": "nH", "setting": "[5]", "result": 1}]}
{"smiles": "Oc1ccccc1C1(N2CCCCC2)CCCCC1", "values": [{"measurement": "K0.5", "setting": "[1]", "result": 0.75, "unit": "µM"}, {"measurement": "K0.5", "setting": "[2]", "result": 17, "unit": "µM"}, {"measurement": "nH", "setting": "[3]", "result": 0.8}, {"measurement": "K0.5", "setting": "[4]", "result": "> 100", "unit": "µM"}, {"measurement": "nH", "setting": "[5]", "result": 1}]}
{"smiles": "OC1CCCC(c2ccccc2)(N2CCCCC2)C1", "note": "(stereo unspecified)", "values": [{"measurement": "K0.5", "setting": "[1]", "result": "0.9 µM and 2.2 µM"}, {"measurement": "K0.5", "setting": "[2]", "result": "27.7 µM and 11.5 µM"}, {"measurement": "nH", "setting": "[3]", "result": "1 and 0.8"}, {"measurement": "K0.5", "setting": "[4]", "result": "> 100", "unit": "µM"}, {"measurement": "nH", "setting": "[5]", "result": "0.9 and 1"}]}
{"smiles": "OC1CCN(C2(c3ccccc3)CCCCC2)CC1", "values": [{"measurement": "K0.5", "setting": "[1]", "result": 2.2, "unit": "µM"}, {"measurement": "K0.5", "setting": "[2]", "result": 25, "unit": "µM"}, {"measurement": "nH", "setting": "[3]", "result": 0.9}, {"measurement": "K0.5", "setting": "[4]", "result": "> 100", "unit": "µM"}, {"measurement": "nH", "setting": "[5]", "result": 1.2}]}
{"smiles": "O[C@H]1CC[C@](c2ccccc2)(N2CCCCC2)CC1", "values": [{"measurement": "K0.5", "setting": "[1]", "result": 8.3, "unit": "µM"}, {"measurement": "nH", "setting": "[5]", "result": 1.1}]}
{"smiles": "c1ccc(C2(N3CCCCC3)CCCCC2)cc1", "note": "[PHENCYCLIDINE]", "values": [{"measurement": "K0.5", "setting": "[1]", "result": 0.25, "unit": "µM"}, {"measurement": "K0.5", "setting": "[2]", "result": 26, "unit": "µM"}, {"measurement": "nH", "setting": "[3]", "result": 0.9}, {"measurement": "K0.5", "setting": "[4]", "result": 30, "unit": "µM"}, {"measurement": "nH", "setting": "[6]", "result": 0.8}, {"measurement": "nH", "setting": "[5]", "result": 1}]}
